# ChEMBL document CHEMBL1221188, “Small-molecule activation of procaspase-3 to caspase-3 as a personalized anticancer strategy” (Nat Chem Biol, 2006)
# Experiments:
# [1] = biological target: T1, Caspase-3 (Homo sapiens) (UniProt P42574); assay: Activation of N-terminal His6-tagged recombinant procaspase-3 expressed in Escherichia coli assessed as appearance of caspase-3 mature large subunit p19 at 5 uM after 1 to 5 hrs by SDS-PAGE
# T1 sequence (whole entry): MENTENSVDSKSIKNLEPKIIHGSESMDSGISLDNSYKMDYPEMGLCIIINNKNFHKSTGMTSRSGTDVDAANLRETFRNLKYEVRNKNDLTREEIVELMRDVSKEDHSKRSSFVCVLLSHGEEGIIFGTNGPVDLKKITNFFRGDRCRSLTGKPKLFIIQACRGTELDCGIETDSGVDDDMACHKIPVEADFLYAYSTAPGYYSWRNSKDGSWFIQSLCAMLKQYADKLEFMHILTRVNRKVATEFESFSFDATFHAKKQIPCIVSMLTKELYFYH
# [2] = biological target: T1, Caspase-3 (Homo sapiens); assay: Activation of N-terminal His6-tagged recombinant procaspase-3 expressed in Escherichia coli at pH of 5 to 5.5 by SDS-PAGE
# [3] = biological target: T1, Caspase-3 (Homo sapiens); assay: Activation of N-terminal His6-tagged recombinant procaspase-3 expressed in Escherichia coli assessed as hydrolysis of acetyl-DEVD-p-nitroanilide after 2 hrs by SDS-PAGE
# [4] = biological target: T1, Caspase-3 (Homo sapiens); assay: Activation of N-terminal His6-tagged recombinant procaspase-3 expressed in Escherichia coli assessed as induction of protein cleavage at 100 uM after 4 hrs by SDS-PAGE
# [5] = biological target: T1, Caspase-3 (Homo sapiens); assay: Activation of N-terminal His6-tagged recombinant procaspase-3 expressed in Escherichia coli assessed as appearance of caspase-3 p32 subunit at 5 uM after 1 to 5 hrs by SDS-PAGE
# [6] = biological target: T1, Caspase-3 (Homo sapiens); assay: Activation of N-terminal His6-tagged recombinant procaspase-3 expressed in Escherichia coli assessed as appearance of caspase-3 mature large subunit p19 at 100 uM after 1 hr by SDS-PAGE
# [7] = biological target: T1, Caspase-3 (Homo sapiens); assay: Activation of procaspase-3-mediated apoptosis in human NCI-H226 cells isolated from BALB/c mouse xenograft at 50 to 100 mg/kg, po SID for 21 days measured after 1 week post last dose by Western blot analysis; format: organism-based
structure (smiles),measurement,setting,value
C=CCc1cccc(/C=N/NC(=O)CN2CCN(Cc3ccccc3)CC2)c1O [PAC-1],Activity,[1],Active
same,Activity,[2],inactive
same,Activity,[3],Dose-dependent effect
same,Activity,[4],> 50%
same,Activity,[5],Active
same,Activity,[6],Active
same,Activity,[7],Active

# Activity calls are given as the source filed them. The calls are words filed in the database; no cut-off is given here.
